From EP4847020A1, “USE OF SMALL MOLECULE COMPOUND IN TREATMENT OF CARDIOVASCULAR DISEASES” (dated 2026)
Values belong to the compound of their own block, whether it stands above or below them.

Chains of the proteins cited; added tags and fusions are not shown.
UniProt P05412, whole entry: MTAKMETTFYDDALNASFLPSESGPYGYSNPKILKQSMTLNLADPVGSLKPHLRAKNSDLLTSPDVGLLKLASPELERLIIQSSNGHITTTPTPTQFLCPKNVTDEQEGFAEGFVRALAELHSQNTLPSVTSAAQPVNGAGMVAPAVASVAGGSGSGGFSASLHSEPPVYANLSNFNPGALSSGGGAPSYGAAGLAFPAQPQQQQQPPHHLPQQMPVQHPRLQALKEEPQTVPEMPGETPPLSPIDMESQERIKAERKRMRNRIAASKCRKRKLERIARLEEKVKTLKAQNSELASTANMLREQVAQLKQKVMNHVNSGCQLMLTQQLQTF

Key:
[1] = biological target: c-Jun/AP-1 (Homo sapiens, UniProt P05412); assay: TransAM kit test of c-Jun transcription factor binding activity to DNA; conditions: remaining binding of c-Jun to dsDNA; lower binding activity = stronger inhibition; drugs tested at 500-31.25 µM, concentration of the tabulated value not stated
Description: The binding ability of DNA to transcription factor was tested using TransAM kits (Active Motif 46096). The transcription factor was c-Jun/AP-1. Drugs at final concentrations of 500 µM, 250 µM, 125 µM, 62.5 µM, and 31.25 µM, along with 1 µL of cell extract containing the transcription factor, were sequentially added to a 96-well plate pre-coated with double-stranded DNA oligonucleotides. After incubation for 1 hour, the plate was incubated with an antibody against the c-JUN transcription factor. The absorbance at 450 nm was measured, with absorbance at 655 nm used as background. The binding activity of the dsDNA sequence to the transcription factor was measured. Lower binding activity indicates stronger inhibitory activity of compound.

[2] = test system: JUN transcription; assay: Dual-luciferase reporter assay (pGL4.44[luc2P/AP1 RE/Hygro]) in PMA-stimulated 293T cells, inhibition of transcriptional activity; conditions: for Luc: PMA 10 ng/ml, PMA alone = 100.0%
Description: 293T cells were passaged at a ratio of 1:3, plated, and incubated for 24 hours. The medium was replaced with antibiotic-free medium Opti-MEM (Gibco, 11058021). The 293T cells were transiently transfected with the luciferase reporter plasmid pGL4.44[luc2P/AP1 RE/Hygro] (Promega E411) and cultured for 24 hours. The cells were incubated for 1 hour in 1% PS/10% FBS/DMEM (Gibco, 11965092) containing the drugs at final concentrations of 50 µM, 25 µM, 12.5 µM, and 6.25 µM. Subsequently, the cells were stimulated with PMA (final concentration 10 ng/ml) (Sigma, 79346-5MG) and cultured for 34 hours. Lysates were measured using the Dual-Luciferase Reporter Assay System (Promega). Both the drugs and PMA were prepared as stock solutions in DMSO, diluted with culture medium, and added to the culture.

[3] = test system: HFpEF animal model; assay: HFpEF mouse model (HFD + L-NAME), Example 2: therapeutic efficacy; conditions: 12 mg/kg per administration, every other day; 3-week point after the administration
Description: The materials and reagents, animal experiment guidelines, and induction of heart failure with preserved ejection fraction model were the same as in Example 1.
The administration method was as follows: After successful induction of the animal model, the model treatment group was treated with the compounds of the present invention (e.g., compounds T3, T5, T8 to T16) or T-5224. The model control group was treated with the drug-free vehicle as a control. Mice fed normally with food and water throughout the induction period served as the negative control. After the mice were raised to 5 to 8 weeks of age, drug treatment was initiated following echocardiography and Doppler imaging confirmation of successful model establishment. For the treatment groups, T3, T5, T8 to T16, and T-5224 were administered at a dose of 12 mg/kg per administration based on mouse body weight. Specifically, the compounds were administered every other day. Each time, 0.54 mg of the compound was dissolved in 100 µL of 0.5% PVP solution (in practice, the drug solution was prepared based on the number of mice. For example, for 14 mice, 8 mg of the compound was dissolved in 1.5 mL of solution, and each mouse received 100 µL of the solution). Drug treatment was initiated after successful model induction. The control group received an equal volume of 0.5% PVP solution, with all other treatments being the same.

Compound: O=C(O)CCc1cc(C(=O)c2ccc(OCc3ccccc3)cc2O)ccc1OCc1ccc(C(=O)O)cc1
DNA Binding Activity (%) [1]: 20.8%

Compound: O=C(O)CCc1cc(C(=O)c2ccc(OC3CCCC3)cc2O)ccc1OCc1ccc(C(=O)O)cc1
DNA Binding Activity (%) [1]: 14.8%
Luc ([2]; 6.25 µM): 80.8%
Luc ([2]; 12.5 µM): 126.6%
Luc ([2]; 25 µM): 88.4%
Luc ([2]; 50 µM): 54.6%
activity in inhibiting JUN transcription (in words) ([2]; AP1 luciferase reporter): showed activity in inhibiting JUN transcription
inhibitory effect on disease progression [3]: significantly inhibited disease progression

Compound: CCOC(=O)CCc1cc(C(=O)c2ccc(OC3CCCC3)cc2O)ccc1OCc1ccc2nc[nH]c2c1
DNA Binding Activity (%) [1]: 103.4%

Now from value to compound:

DNA Binding Activity (%) [1]: 42.9%
Compound: CCOC(=O)c1ccc(COc2ccc(C(=O)c3ccc(OCC(C)C)cc3O)cc2CCC(=O)O)cc1

DNA Binding Activity (%) [1]: 49.8%
Compound: CC(C)COc1ccc(C(=O)c2ccc(OCc3ccc(C(=O)O)cc3)c(CCC(=O)O)c2)c(O)c1
